Laboratory results taken from patent US8211885B2, “Cyclic indole-3-carboxamides, their preparation and their use as pharmaceuticals” (Sanofi-Aventis, priority 2008, dated 2012).

The chains behind the UniProt entries cited, without tags or fusion partners. Residues count along the entry.
UniProt P00797, 67-406: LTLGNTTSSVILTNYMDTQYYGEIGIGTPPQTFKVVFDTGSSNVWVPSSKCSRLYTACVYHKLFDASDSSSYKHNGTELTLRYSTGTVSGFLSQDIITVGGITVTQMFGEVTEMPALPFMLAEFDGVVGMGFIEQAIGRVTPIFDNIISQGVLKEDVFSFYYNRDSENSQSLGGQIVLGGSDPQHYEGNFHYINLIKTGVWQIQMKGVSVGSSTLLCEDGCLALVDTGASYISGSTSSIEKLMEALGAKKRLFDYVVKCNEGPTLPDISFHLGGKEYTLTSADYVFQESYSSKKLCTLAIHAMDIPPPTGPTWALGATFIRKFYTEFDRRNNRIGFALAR

Biological target: Recombinant human renin (Homo sapiens, UniProt P00797)
Experiment: Inhibition of renin (fluorogenic peptide substrate)
Conditions: read-out: IC50 values for inhibition of renin (fluorogenic peptide substrate); renin 5 nM, substrate Dabcyl-γ-Abu-[…]-EDANS 10 μM, 2 h room temperature, Tris buffer pH 8; compounds tested as the obtained salt

CC1CN(C(=O)c2c(Oc3ccccc3)n(-c3ccccc3)c3ccccc23)CCN1 (stereo not shown) [Example 123]
IC50: 6.5 µM
